Kd and IC50 data for 2 molecules are collected here from publication PMC4537392 (Neuropharmacology, 2015).

Protein sequences, listed by entry. Tags and fused reporters are not part of them. Residues count along the entry.
UniProt P31423, 33-912: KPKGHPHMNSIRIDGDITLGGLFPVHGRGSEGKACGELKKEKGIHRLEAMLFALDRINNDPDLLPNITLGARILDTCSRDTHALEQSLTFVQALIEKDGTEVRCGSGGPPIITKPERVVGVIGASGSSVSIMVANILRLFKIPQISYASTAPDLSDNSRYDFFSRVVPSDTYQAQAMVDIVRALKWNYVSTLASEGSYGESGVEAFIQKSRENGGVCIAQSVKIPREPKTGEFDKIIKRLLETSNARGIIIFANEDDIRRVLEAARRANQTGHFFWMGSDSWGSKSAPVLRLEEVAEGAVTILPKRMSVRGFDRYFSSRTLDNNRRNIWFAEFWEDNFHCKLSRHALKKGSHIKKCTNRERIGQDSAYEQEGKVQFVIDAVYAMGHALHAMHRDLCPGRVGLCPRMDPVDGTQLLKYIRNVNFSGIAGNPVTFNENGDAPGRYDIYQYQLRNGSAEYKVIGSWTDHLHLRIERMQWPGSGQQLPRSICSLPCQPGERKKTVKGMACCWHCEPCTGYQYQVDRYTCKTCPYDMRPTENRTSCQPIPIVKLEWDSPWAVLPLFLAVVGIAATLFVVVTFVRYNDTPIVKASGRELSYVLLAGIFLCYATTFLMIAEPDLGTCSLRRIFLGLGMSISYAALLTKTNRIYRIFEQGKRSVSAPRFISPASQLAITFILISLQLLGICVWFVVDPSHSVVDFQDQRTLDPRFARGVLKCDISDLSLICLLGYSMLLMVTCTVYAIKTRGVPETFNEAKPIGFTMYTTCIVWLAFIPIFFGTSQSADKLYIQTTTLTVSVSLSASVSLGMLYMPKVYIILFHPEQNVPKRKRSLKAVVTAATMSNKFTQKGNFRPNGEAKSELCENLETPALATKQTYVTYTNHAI

Assay [1] addresses T1, mGlu4 (Rattus norvegicus, UniProt P31423). The assay is described as follows: Association and dissociation assays of [3H]3. In kind it is binding.
Assay [2] has as its target T1, mGlu4. As to the kind of experiment: mGlu4 competitive binding assay against [3H]ML128. The conditions noted are these: IC50 (binding inhibition of [3H]3).

With `COc1cc(NC(=O)c2ccccn2)ccc1Cl` [[^3H]3, N-(4-Chloro-3-methoxyphenyl)-2-picolinamide], the Kd on mGlu4 [1] is 19 nM.
With `COc1cc(NC(=O)c2ccccn2)ccc1Cl` [compound 3, N-(4-Chloro-3-methoxyphenyl)-2-picolinamide, reference compound], the 50% inhibitory concentration (IC50) at mGlu4 [2] (10 nM [3H]3, with 100 nM of 1 (glutamate)) was 11 nM; on mGlu4 [2] (10 nM [3H]3, with 1 mM of 1 (glutamate)), 10 nM.
